The results in this text go back to US20260199485A1, “RNA DEGRADERS AND USES THEREOF” (Arrakis Therapeutics, Inc., priority 2022, published 2026).

Sequences of proteins named here, by UniProt entry; tags and fusion partners are left off.
UniProt Q9UIV1, whole entry: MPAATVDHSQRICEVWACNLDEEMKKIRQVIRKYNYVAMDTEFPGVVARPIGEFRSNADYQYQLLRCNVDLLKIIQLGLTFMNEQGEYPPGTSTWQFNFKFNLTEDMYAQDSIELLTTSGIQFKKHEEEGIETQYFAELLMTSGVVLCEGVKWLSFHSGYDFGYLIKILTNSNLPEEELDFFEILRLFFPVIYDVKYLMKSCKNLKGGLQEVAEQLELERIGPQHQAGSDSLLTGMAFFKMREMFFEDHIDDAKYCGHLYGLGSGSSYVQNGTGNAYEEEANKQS

SMILES strings stand for the structures.

One test deals with CNOT7 (Homo sapiens, UniProt Q9UIV1). Description: Binding of compounds to CNOT7 by surface plasmon resonance (SPR). The conditions noted are these: Table 5; dissociation constant for CNOT7 by SPR. As for the experimental part:
Surface plasmon resonance (SPR) was used to evaluate the binding of compounds to CNOT7. Experiments were performed on a Biacore 8K (Cytiva) with a running buffer consisting of 20 mM HEPES pH7.5, 100 mM KCl, 3 mM MgCl2, 1 mM TCEP, 0.05% tween-20, 2% DMSO. Briefly, biotinylated CNOT7 (Ichor Life Sciences) at a concentration of 70 μg/ml was immobilized to a streptavidin coated chip (Cytiva sensor chip SA) for 1200 sec at a flow rate of 5 μl/min (typical immobilization level 7,500 RU). For compound binding experiments, various concentrations of analyte were flowed over the chip with 120 sec association phase, 120 sec dissociation phase, at a flow rate of 30 ul/min and collection rate of 10 Hz. Reference channel subtraction and solvent correction were applied to all sensograms prior to data analysis. Sensograms were fit to 1:1 steady state affinity model. FIGS. 3 and 4 show the binding of exemplary compounds and the AMP control (a known CNOT7 active site binder) at various concentrations to CNOT7.
On the technique in general: In SPR one partner is held on a chip, and binding of the other changes the refractive index at the surface.
The molecule `COc1ccc([C@H](NC(=O)CSc2nc(=O)[nH]cc2C)C2CC2)cc1` showed a Kd of 1 to 25 µM.

Still in this test, the particulars now being: dissociation constant by SPR, Table 7.
On to `COCCOCC[C@H](Sc1nc(=O)[nH]cc1C)C(=O)NCc1ccc(OC)cc1` [Compound I-167, (2S)-4-(2-methoxyethoxy)-N-[(4-methoxyphenyl)methyl]-2-[(5-methyl-2-oxo-1H-pyrimidin-4-yl)sulfanyl]butanamide], for which the Kd was 1 to 25 µM.

`C#CCOCCOCCOCCOC[C@@H]1CN(C(=O)CSc2nc(=O)[nH]cc2C)Cc2ccc(OC)cc21` showed a Kd of 1 to 25 µM.

In turn, `COC[C@H](Sc1nc(=O)[nH]cc1C)C(=O)N1CCc2cc(OC)ccc2[C@H]1C` came in with a Kd of 1 to 25 µM.

Consider `COc1ccc(CNC(=O)[C@H](Cc2ccc(O)cc2)Sc2nc(=O)[nH]cc2C)cc1`, for which the Kd was over 25 µM.

`COCCOCC#CC[C@@H](Sc1nc(=O)[nH]cc1C)C(=O)NCc1ccc(OC)cc1` came in with a Kd of 1 to 25 µM.

In turn, `C#CCOCCOCCOCCOC[C@@H]1CN(C(=O)CSc2nc(=O)[nH]cc2Cl)[C@H](C)c2ccc(OC)cc21` showed a Kd of over 25 µM.

`COC[C@@H](Sc1nc(=O)[nH]cc1C)C(=O)NCc1ccc2c(c1)CC(=O)N2C` had a Kd of 1 to 25 µM.

`COc1ccc2c(c1)[C@@H](COCCOCCOCCOCCN=[N+]=[N-])CN(C(=O)CSc1nc(=O)[nH]cc1Cl)[C@H]2C`: the Kd is over 25 µM.

On to `COc1ccc2c(c1)CCN(C(=O)CSc1nc(=O)[nH]cc1Cl)[C@@H]2C`, for which the Kd is over 25 µM.

The molecule `COc1ccc(CNC(=O)[C@@H](Cc2ccc(O)cc2)Sc2nc(=O)[nH]cc2C)cc1` had a Kd of 1 to 25 µM.

For the molecule `COc1ccc(CNC(=O)[C@@H](CCc2ccc(O)cc2)Sc2nc(=O)[nH]cc2C)cc1`, the Kd was 1 to 25 µM.

For the molecule `C#CCOCCOCCOCCOC[C@H]1CN(C(=O)CSc2nc(=O)[nH]cc2C)Cc2ccc(OC)cc21`, the Kd is over 25 µM.

In turn, `COC[C@@H](Sc1nc(=O)[nH]cc1C)C(=O)N1CCc2cc(OC)ccc2[C@H]1C` registered a Kd of 1 to 25 µM.

Usually Kd stands for the equilibrium constant for the complex coming apart.
